# Ab-95 light chain CDR variants: yeast mating affinities

Antigen: PDVDLGDISGINAS, a 14-residue peptide of the SARS-CoV-2 spike HR2 region.

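Phage display of a naive human antibody library on the peptide gave the parent. AAYL52 was designed without a model: most single CDR substitutions and a random sample of double and triple ones. Affinity was read by AlphaSeq, a pooled yeast mating assay with surface-displayed partners. After mating in shaken culture at 30 °C for 16 h, diploids were selected and their barcode pairs sequenced. Scores were corrected for input abundance and mapped to Kd with protein pairs of known affinity run in the same pool. Each pool was mated in three replicate cultures.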

Ab-95 is the parent antibody, in scFv form: VH, then a 15-residue (Gly4Ser)3 linker, then VL. The heavy chain is unchanged in all variants.
VH: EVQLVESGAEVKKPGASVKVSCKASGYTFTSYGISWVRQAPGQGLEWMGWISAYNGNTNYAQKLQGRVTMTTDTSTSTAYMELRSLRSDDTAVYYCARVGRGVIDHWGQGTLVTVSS
VL: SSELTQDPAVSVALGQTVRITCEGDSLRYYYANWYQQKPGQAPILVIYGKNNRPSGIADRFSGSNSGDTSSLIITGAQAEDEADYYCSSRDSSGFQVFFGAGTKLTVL

Positions count from residue 1 of the parent VL; R28T puts T in place of R. The Kd shown is the geometric mean over detected replicates; a lower Kd is a better binder. "nd" means that the variant was in the library but no mating with the target was seen in any replicate; the authors take this as a sign of poor binding, and no number exists. Background: pairings of library AAYL52 with three empty control strains gave a value in 28% of cases (median 8.2 µM, 5th percentile 800 nM). Values in that range, when seen in few replicates, are hard to tell from nonspecific mating. Also given: how often the same scFv was detected with the empty control strains. Parent in this assay: reference entry 200 nM, copy in this library 180 nM.

| Kd (apparent) | replicates with signal | empty controls | changes |
|---|---|---|---|
| 5.3 µM | 1/3 | 4/9 | R28T+N52I+R53H |
| 2.3 µM | 3/3 | 4/9 | K50E+S93I |
| 1.4 µM | 2/3 | 6/9 | S26Y+N33W+R53A |
| 130 nM | 3/3 | 0/9 | R28S+R90L |
| 110 nM | 3/3 | 1/9 | E23D+Y30A+S55R |
| 750 nM | 3/3 | 4/9 | D25K+Y30F |
| 470 nM | 3/3 | 3/9 | E23H+N51M+Q96N |
| 780 nM | 2/3 | 1/9 | Y30I+S89F+D91R |
| 6.3 µM | 3/3 | 3/9 | K50L+R53A |
| 22 µM | 2/3 | 2/9 | L27N+R28K+K50V |
| 51 µM | 3/3 | 3/9 | L27H+G49I+S89T |
| 390 nM | 3/3 | 2/9 | R28A+P54D+F98R |
| nd | 0/3 | 1/9 | S26Q+A32R+F98S |
| 5.1 µM | 1/3 | 1/9 | R28H+R53W+R90E |
| 31 µM | 1/3 | 1/9 | N52I+G94E+F98G |
| nd | 0/3 | 2/9 | G24Q+Y31R+N51F |
| 5.1 µM | 2/3 | 5/9 | D25S+Y30C+D91Q |
| 2.2 µM | 2/3 | 2/9 | A32H+N33Y+N51E |
| 2.6 µM | 3/3 | 4/9 | E23F+N33F+V97G |
| 3.2 µM | 3/3 | 5/9 | Y31W+N52T+V97Y |
| 800 nM | 2/3 | 3/9 | Y30Q+A32H+R53S |
| 24 nM | 3/3 | 4/9 | E23M+Y30Q+G49T |
| nd | 0/3 | 0/9 | A32Y+S89G+R90L |
| 8.0 µM | 1/3 | 1/9 | D25L+Y31T+A32F |
| 33 µM | 2/3 | 2/9 | S88P+G94P |
| 630 µM | 2/3 | 6/9 | A32C+D91N+F98T |
| 11 µM | 1/3 | 0/9 | K50I+P54I+G94W |
| 2.8 µM | 3/3 | 2/9 | S89H+S93T+V97M |
| 12 µM | 2/3 | 4/9 | Y29A+S89N+G94S |
| 6.6 µM | 1/3 | 4/9 | Y29A+R53D+V97I |
| 3.5 µM | 1/3 | 2/9 | G24D+K50I+S55P |
| 140 µM | 3/3 | 1/9 | A32T+R90W+S92C |
| 9.7 µM | 1/3 | 1/9 | R28E+K50V+N52Q |
| 1.9 µM | 1/3 | 1/9 | Y29K+D91Y+G94P |
| 2.5 µM | 2/3 | 3/9 | S93Q+G94M+F98H |
| 2.2 µM | 1/3 | 6/9 | Y30M+N51Q+S93F |
| 590 nM | 3/3 | 6/9 | D25W+G94N+F95Q |
| 62 µM | 2/3 | 3/9 | R90K+D91H+G94A |
| 3.8 µM | 2/3 | 4/9 | L27P+A32C+R53Y |
| nd | 0/3 | 3/9 | L27N+N51W+N52E |
| 5.9 µM | 1/3 | 0/9 | E23Y+P54E+G94C |
| 1.0 µM | 3/3 | 2/9 | K50M+S92L+F95Q |
| nd | 0/3 | 0/9 | E23S+R53I+F98I |
| 630 nM | 3/3 | 2/9 | G24C+R28D+Y29M |
| 340 nM | 3/3 | 2/9 | G24L+Y31A+F98K |
| 8.6 µM | 1/3 | 2/9 | D25R+S26E+N51Y |
| 20 µM | 1/3 | 5/9 | D25T+G49V |
| 160 nM | 3/3 | 2/9 | N52T+S93C+Q96P |
| nd | 0/3 | 1/9 | D25R+S26F+D91P |

A selection of 5 entries from above:

| changes | Kd (apparent) | replicates with signal | empty controls |
|---|---|---|---|
| D25R+S26F+D91P | nd | 0/3 | 1/9 |
| A32T+R90W+S92C | 140 µM | 3/3 | 1/9 |
| Y31W+N52T+V97Y | 3.2 µM | 3/3 | 5/9 |
| R28S+R90L | 130 nM | 3/3 | 0/9 |
| E23M+Y30Q+G49T | 24 nM | 3/3 | 4/9 |

Reference: Engelhart et al. 2022, doi:10.1038/s41597-022-01779-4. File: FLAb, binding data.